We go through one compound from US20070293486A1, “Alpha-Keto Carbonyl Calpain Inhibitors” (SANTHERA PHARMACEUTICALS (SCHWEIZ) AG, priority 2004, published 2007).

The chains behind the UniProt entries cited, without tags or fusion partners. Residues count along the entry.
UniProt G1T4Q9, 1-263: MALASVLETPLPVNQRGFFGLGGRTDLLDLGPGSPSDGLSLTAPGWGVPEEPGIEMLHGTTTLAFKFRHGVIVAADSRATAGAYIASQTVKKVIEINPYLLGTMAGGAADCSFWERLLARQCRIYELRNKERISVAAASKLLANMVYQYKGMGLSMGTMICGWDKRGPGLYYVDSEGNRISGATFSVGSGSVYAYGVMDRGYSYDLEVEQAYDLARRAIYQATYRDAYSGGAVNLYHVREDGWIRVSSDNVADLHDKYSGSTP

Molecules are shown by their SMILES.

In test [1] the test system is cellular calpains in C2C12 myoblasts. Kind of test: Calpain Inhibition Assay in C2C12 Myoblasts. Conditions: read-out: Calp I IC50 Myoblast.
Test [2] addresses 20S Proteasome (Oryctolagus cuniculus, UniProt G1T4Q9). Kind of test: 20S Proteasome Assay. Conditions: read-out: 20S Prot IC50, Rabbit.

The IC50 is the concentration at which inhibition is half-maximal. `CC(C)[C@H](NC(=O)OCc1ccccc1)C(=O)N[C@H](C=O)Cc1ccccc1`: the results for the IC50 in test [1] and in test [2] were 40 µM and over 1 µM, respectively.
